Literature values, collected in patent US20170037111A1, “Novel peptides and combination of peptides for use in immunotherapy against ovarian cancer and other cancers” (immatics biotechnologies GmbH, priority 2015, published 2017).

Tested on: ovarian cancer
Conditions: clinical studies, phase as stated; cited from earlier work

In the case of trastuzumab: anti-HER2/neu antibody, the “clinical effect in ovarian cancer patients” value is listed as “limited clinical benefit”.
